Reference: patent US20240343793A1 (TILLOTTS PHARMA, published 2024)

Amino acid sequences for entries named in this document (tags omitted). Residues count along the entry.
UniProt P55899, 24-297 limits assumed, chain 1 of 2: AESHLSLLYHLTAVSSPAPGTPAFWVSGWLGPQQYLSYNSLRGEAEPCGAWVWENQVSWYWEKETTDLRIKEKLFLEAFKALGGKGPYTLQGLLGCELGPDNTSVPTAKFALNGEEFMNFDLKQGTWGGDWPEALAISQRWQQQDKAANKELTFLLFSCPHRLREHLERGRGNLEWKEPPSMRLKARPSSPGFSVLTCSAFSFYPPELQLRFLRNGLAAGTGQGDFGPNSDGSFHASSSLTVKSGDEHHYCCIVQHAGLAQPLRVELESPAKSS

Target: T1, monomeric His-tagged human FcRn (human, UniProt P55899 24-297; P61769 21-119)
T1 construct: also called hFcRn
Assay: SPR (Biacore 3000), antibody amine-coupled, monomeric His-tagged hFcRn injected, pH 6.0

B1: infliximab (antibody)
chain 1: not shown
chain 2: DILLTQSPAILSVSPGERVSFSCRASQFVGSSIHWYQQRTNGSPRLLIKYASESMSGIPSRFSGSGSGTDFTLSINTVESEDIADYYCQQSHSWPFTFGSGTNLEVKRTVAAPSVFIFPPSDEQLKSGTASVVCLLNNFYPREAKVQWKVDNALQSGNSQESVTEQDSKDSTYSLSSTLTLSKADYEKHKVYACEVTHQGLSSPVTKSFNRGEC
Kd: 425 nM
